In US9682965B2, “Fumagillol heterocyclic compounds and methods of making and using same” (Zafgen, Inc., priority 2015, dated 2017):
Where a name gives a salt, the structure may show the parent alone.

System: pregnant Sprague Dawley rats (embryo/fetal development)
Details: in vivo
Source text: Study Summary Rat Embryofetal:
The objective of this study design was to evaluate the potential effects of disclosed compounds on embryo/fetal development when given subcutaneously to pregnant rats once every three days during the critical period of organogenesis (Gestation Days 6-18). Female, Sprague Dawley rats, approximately 10 weeks of age, time bred, were ordered from a certified vendor and housed individually housed in stainless steel cages suspended over flush pans, on a 12-hour light-dark cycle (0700-1900) at 20-26° C. and 30-70% humidity. Rats were fed a standard rodent chow and provided water ad libitum. […]
Compounds were formulated using 100% DMSO mixed in Sterile Water for Injection, resulting in 2% DMSO solution in water. […] Body weights was recorded for all animals on Gestation Days 5 (purpose of randomization), 6, 9, 12, 15, 18, and 20 (scheduled euthanasia). Food consumption by weight was recorded on Gestation Days 6, 9, 12, 15, 18, and 20 (scheduled termination).
At necropsy, the dams were examined visually for external abnormalities including palpable masses. The abdominal, thoracic, and cranial cavities and their contents were examined for abnormalities and findings will be recorded. […] For dead fetuses and late resorptions, crown-to-rump length and weight were recorded, if possible, and the fetus was discarded. […]

| SMILES | Rat Embryofetal @6 mpk |
| --- | --- |
| CO[C@@H]1[C@H](OC(=O)N2CC(CCC3CCN(CC(F)F)CC3)C2)CC[C@]2(CO2)[C@H]1[C@@]1(C)O[C@@H]1CC=C(C)C [Example 91, (3R,4S,5S,6R)-5-methoxy-4-((2R,3R)-2-methyl-3-(3-methylbut-2-enyl)oxiran-2-yl)-1-oxaspiro[2.5]octan-6-yl 3-(2-(1-(2,2-difluoroethyl)piperidin-4-yl)ethyl)azetidine-1-carboxylate formate] | Positive |
| CO[C@@H]1[C@H](OC(=O)N2CC(OC(=O)N3CCOCC3)C2)CC[C@]2(CO2)[C@H]1[C@@]1(C)O[C@@H]1CC=C(C)C [Example 71, 1-(((3R,4S,5S,6R)-5-methoxy-4-((2R,3R)-2-methyl-3-(3-methylbut-2-enyl)oxiran-2-yl)-1-oxaspiro[2.5]octan-6-yloxy)carbonyl)azetidin-3-yl morpholine-4-carboxylate formate] | Negative |
